Data: PMC2579264 (European journal of pharmacology, 2008)

Amino acid sequences for entries named in this document (tags omitted).
UniProt P49146, whole entry: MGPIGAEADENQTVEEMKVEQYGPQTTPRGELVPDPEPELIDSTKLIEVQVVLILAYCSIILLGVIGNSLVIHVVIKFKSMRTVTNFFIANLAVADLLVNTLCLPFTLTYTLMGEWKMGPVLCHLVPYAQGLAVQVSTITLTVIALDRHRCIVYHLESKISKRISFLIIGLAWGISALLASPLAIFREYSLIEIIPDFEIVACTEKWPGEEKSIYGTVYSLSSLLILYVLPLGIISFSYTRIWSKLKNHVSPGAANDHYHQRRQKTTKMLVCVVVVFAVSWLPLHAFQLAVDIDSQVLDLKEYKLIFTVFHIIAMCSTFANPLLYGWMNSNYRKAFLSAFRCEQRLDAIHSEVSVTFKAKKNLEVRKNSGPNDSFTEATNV

Biological target: human neuropeptide Y Y2 receptor, wildtype (P^34D^35) (Homo sapiens, UniProt P49146)
Test: Competition binding of [^125I] PYY in particulates, wildtype Y2 receptor
Settings: particulates from CHO cells expressing wildtype and mutated receptors (Table 1)

For “peptide YY(1–36): non-selective Y receptor agonist; the parent peptide of peptide YY(3–36)”, the “affinities, wildtype and mutated receptors compared” value was “quite similar”.
